Measured values: patent EP1049466B1, “CARBONIC ANHYDRASE INHIBITOR FOR INCREASING OXYGEN TENSION IN THE OPTIC NERVE AND RETINA” (Stefansson, Einar, priority 1998, dated 1999)

Tested on: optic nerve
Assay: Oxygen tension of optic nerve (ONPO2), polarographic electrode in the vitreous humour 0.5 mm over the optic disc of anaesthetised pigs
Set-up: species or system Danish agricultural pigs (landrace)
Details: pig, in vivo

## CCN[C@H]1C[C@H](C)S(=O)(=O)c2sc(S(N)(=O)=O)cc21.Cl [dorzolamide, (S,S)-(-)-5,6-Dihydro-4-ethylamino-6-methyl-4H-thieno[2,3-b]thiopyran-2-sulfonamide-7,7-dioxide hydrochloride]
  raised the optic nerve oxygen tension by: 25-60%
iv
  ONPO2 after injection: 26.9 ± 12.2 mmHg
  ONPO2 before injection: 16.4 ± 6.1 mmHg
  rise of ONPO2: 52.5%
